Target: Melanocortin receptor 4 (Homo sapiens, UniProt P32245)

Chains of the proteins cited; added tags and fusions are not shown.
UniProt P32245, whole entry: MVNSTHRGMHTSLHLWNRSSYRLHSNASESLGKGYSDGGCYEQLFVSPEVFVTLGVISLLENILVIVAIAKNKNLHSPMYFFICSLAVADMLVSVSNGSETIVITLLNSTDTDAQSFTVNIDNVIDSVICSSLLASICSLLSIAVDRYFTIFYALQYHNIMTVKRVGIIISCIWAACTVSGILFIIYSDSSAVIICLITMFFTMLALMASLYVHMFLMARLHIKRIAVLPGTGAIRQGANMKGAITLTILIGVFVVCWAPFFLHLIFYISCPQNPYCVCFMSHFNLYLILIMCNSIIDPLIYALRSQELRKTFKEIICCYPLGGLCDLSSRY

Structure (SMILES): CC(C)C(O)(C(=O)OCC1=CCN2CCC(O)C12)C(C)O (stereo unspecified) [CAS_114843]
- Ki: 18.6 nM

— BindingDB's records for doi:10.1124/jpet.105.083337 (Neurocrine Biosciences, 2005)
